The test deals with Human-derived DNA-PK (Homo sapiens, UniProt P78527). The experiment in a line: DNA-dependent protein kinase (DNA-PK) inhibitory activity screening experiment (Eurofins, HTRF). The test is classed as biochemical. The settings on record: read-out: DNA-PK kinase inhibitory activity IC50; ATP: 10 μM; 50 nM GST-cMyc-p53; 30 minutes at room temperature. For orientation: TR-FRET usually uses a lanthanide donor and a delayed reading to cut background.

Chains of the proteins cited; added tags and fusions are not shown.
UniProt P78527, whole entry: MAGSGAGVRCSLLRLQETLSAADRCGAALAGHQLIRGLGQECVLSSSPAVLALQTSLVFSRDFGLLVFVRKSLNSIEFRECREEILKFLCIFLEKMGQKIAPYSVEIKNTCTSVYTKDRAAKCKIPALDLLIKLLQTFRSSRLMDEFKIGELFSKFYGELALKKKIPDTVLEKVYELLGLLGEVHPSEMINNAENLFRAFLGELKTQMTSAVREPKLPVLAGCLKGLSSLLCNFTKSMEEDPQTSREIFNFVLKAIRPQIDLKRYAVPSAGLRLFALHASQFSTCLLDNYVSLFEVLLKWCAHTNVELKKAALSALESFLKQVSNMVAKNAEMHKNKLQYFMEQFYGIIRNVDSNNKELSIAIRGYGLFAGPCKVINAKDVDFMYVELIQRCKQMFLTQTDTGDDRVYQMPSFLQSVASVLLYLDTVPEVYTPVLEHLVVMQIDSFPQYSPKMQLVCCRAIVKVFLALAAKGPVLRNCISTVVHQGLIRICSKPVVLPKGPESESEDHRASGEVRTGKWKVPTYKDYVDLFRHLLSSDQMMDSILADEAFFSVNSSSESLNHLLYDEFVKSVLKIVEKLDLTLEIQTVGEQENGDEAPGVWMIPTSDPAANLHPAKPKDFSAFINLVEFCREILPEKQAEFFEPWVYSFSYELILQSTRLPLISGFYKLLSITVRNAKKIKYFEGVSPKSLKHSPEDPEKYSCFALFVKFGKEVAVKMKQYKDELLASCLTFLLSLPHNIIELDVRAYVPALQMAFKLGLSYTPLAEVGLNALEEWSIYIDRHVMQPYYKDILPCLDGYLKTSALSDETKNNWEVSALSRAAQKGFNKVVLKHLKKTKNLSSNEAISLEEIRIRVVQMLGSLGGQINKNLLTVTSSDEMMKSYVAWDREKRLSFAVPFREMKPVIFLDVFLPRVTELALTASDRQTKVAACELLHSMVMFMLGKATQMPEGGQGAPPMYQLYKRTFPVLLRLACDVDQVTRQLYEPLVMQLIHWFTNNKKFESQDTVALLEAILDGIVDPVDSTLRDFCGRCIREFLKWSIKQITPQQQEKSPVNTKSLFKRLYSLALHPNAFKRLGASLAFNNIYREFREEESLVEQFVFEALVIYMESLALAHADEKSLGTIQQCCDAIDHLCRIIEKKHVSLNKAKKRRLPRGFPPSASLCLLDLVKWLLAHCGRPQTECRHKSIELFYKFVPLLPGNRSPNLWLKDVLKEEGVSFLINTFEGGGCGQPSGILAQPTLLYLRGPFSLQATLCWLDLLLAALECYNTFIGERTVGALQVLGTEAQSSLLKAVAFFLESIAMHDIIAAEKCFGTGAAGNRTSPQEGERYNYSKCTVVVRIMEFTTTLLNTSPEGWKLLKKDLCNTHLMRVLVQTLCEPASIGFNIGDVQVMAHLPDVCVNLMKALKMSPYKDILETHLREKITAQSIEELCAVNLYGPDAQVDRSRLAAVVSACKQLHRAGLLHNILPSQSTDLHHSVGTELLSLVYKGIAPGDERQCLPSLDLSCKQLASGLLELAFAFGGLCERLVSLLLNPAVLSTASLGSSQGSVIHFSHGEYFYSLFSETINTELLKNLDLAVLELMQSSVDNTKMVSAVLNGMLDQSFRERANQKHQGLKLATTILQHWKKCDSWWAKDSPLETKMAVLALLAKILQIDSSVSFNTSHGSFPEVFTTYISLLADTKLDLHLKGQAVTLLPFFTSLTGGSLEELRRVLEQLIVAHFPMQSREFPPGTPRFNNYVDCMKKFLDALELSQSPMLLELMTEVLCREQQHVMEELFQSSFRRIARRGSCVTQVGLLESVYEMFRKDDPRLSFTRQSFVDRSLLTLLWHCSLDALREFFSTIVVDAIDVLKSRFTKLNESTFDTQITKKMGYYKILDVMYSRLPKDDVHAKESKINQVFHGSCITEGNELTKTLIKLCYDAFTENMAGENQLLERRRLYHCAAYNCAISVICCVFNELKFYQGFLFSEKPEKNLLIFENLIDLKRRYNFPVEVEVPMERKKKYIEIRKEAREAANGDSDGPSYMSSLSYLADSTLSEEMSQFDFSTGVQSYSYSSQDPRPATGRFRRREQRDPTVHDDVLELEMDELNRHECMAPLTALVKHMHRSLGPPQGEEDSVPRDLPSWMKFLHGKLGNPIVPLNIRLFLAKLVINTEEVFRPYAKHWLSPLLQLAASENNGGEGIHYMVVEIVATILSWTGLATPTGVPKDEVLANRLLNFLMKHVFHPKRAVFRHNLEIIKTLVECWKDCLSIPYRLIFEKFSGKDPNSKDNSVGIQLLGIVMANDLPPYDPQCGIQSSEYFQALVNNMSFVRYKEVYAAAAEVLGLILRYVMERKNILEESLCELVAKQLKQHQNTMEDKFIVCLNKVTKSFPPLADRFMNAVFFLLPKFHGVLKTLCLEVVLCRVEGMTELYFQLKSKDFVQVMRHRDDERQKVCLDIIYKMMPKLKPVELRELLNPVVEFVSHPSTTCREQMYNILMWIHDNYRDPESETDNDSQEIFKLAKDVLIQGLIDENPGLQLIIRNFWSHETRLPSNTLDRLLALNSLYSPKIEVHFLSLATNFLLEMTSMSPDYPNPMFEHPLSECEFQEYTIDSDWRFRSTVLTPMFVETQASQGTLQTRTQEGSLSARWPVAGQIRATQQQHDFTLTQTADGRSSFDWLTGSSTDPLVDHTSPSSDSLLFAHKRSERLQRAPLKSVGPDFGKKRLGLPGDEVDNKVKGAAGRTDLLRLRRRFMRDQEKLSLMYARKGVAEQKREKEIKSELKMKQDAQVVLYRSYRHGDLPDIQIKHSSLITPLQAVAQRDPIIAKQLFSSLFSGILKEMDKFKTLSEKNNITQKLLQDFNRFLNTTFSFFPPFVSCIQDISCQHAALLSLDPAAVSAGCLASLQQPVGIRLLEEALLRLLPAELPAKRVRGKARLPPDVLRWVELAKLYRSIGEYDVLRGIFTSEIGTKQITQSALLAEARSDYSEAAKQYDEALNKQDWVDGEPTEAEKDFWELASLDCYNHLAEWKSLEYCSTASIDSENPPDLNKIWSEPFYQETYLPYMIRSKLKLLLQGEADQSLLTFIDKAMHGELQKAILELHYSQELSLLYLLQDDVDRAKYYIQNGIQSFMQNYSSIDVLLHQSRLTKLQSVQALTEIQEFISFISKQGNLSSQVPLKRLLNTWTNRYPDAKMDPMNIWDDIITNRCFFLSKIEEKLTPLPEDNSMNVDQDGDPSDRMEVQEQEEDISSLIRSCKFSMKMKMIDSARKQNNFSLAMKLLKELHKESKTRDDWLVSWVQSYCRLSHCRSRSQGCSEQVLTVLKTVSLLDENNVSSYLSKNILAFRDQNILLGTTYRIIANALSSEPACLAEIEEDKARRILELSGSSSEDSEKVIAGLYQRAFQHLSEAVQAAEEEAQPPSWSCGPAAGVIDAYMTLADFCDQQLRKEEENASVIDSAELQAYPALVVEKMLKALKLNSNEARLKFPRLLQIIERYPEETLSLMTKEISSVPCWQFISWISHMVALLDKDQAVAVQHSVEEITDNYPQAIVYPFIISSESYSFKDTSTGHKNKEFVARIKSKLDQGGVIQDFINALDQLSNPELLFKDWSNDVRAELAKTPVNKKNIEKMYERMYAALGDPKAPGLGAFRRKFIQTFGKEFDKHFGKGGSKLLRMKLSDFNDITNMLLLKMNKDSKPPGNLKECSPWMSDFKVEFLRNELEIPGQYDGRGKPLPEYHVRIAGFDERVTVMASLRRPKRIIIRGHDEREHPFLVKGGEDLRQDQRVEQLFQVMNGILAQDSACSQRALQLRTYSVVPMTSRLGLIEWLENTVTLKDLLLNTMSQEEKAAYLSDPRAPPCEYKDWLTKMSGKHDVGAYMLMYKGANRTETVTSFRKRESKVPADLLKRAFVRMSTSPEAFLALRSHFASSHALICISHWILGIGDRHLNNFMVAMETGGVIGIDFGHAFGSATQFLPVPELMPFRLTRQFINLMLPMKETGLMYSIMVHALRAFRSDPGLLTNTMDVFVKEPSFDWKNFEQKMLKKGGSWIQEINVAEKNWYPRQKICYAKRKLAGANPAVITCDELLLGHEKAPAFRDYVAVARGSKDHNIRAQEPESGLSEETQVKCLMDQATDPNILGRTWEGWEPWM
UniProt P13010, whole entry partner: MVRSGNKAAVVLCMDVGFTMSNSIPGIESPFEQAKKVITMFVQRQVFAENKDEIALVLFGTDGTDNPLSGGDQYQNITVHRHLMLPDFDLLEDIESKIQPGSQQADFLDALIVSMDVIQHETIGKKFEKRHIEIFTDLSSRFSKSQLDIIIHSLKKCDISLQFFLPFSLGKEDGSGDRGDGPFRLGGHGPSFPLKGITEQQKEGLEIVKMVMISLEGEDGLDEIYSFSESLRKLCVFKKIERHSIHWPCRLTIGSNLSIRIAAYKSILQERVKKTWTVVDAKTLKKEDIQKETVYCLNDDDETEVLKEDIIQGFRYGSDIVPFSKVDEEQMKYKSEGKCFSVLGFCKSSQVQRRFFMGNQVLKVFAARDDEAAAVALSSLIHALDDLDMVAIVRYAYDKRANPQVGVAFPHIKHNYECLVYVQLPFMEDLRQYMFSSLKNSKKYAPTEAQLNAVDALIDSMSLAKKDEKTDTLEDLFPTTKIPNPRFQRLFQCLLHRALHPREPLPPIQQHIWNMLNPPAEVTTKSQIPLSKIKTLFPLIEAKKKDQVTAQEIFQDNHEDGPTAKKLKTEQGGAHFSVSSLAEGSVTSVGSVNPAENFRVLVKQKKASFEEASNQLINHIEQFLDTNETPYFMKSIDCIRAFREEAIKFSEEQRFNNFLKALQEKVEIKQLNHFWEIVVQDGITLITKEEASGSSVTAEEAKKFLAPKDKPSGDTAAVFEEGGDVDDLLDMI
UniProt P12956, whole entry partner: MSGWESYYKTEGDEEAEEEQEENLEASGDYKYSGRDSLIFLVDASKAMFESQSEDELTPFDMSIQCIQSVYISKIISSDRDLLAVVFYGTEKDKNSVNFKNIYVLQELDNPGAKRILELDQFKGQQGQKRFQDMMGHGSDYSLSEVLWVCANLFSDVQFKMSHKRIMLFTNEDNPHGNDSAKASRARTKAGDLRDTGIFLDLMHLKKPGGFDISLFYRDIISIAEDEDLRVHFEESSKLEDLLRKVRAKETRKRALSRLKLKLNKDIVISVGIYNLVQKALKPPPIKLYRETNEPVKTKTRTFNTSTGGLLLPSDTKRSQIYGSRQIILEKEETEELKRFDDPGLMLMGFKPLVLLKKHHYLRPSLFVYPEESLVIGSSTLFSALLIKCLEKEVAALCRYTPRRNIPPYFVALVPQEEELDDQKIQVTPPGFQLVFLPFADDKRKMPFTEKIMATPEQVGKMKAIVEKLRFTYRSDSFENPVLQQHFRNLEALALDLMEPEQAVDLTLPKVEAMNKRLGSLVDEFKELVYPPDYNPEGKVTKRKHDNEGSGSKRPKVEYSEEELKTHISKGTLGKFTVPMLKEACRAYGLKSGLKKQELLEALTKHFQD

Experimental findings from patent US20230055321A1, “PYRIMIDOPYRROLE SPIRO COMPOUNDS AND DERIVATIVES THEREOF AS DNA-PK INHIBITORS” (MEDSHINE DISCOVERY INC., priority 2019, published 2023) are described below.

As usually defined, the IC50 is the concentration needed to halve the response being measured. In the case of `Cc1cc2ncnn2cc1Nc1ncc2c(n1)C1(CCC3(CCO3)CC1)C(=O)N2C` (single isomer, unassigned) [Compound 25], the IC50 turned out to be 6 nM.

`Cc1cc2ncnn2cc1Nc1ncc2c(n1)C1(CCC3(CCO3)CC1)C(=O)N2C` (single isomer, unassigned) [Compound 26]: the 50% inhibitory concentration (IC50) was 3 nM.
